Experimental data: ChEMBL document CHEMBL1131645, “Synthesis and activity studies of N-[omega-N'-(adamant-1'-yl)aminoalkyl]- 2-(4'-dimethylaminophenyl)acetamides: in the search of selective inhibitors for the different molecular forms of acetylcholinesterase” (Bioorg Med Chem Lett, 1998)

By UniProt entry, the sequences of proteins in these tests, tags left out. Where a name states a change or a piece, a line headed by the entry shows the natural chain unless it says otherwise.
UniProt O42275: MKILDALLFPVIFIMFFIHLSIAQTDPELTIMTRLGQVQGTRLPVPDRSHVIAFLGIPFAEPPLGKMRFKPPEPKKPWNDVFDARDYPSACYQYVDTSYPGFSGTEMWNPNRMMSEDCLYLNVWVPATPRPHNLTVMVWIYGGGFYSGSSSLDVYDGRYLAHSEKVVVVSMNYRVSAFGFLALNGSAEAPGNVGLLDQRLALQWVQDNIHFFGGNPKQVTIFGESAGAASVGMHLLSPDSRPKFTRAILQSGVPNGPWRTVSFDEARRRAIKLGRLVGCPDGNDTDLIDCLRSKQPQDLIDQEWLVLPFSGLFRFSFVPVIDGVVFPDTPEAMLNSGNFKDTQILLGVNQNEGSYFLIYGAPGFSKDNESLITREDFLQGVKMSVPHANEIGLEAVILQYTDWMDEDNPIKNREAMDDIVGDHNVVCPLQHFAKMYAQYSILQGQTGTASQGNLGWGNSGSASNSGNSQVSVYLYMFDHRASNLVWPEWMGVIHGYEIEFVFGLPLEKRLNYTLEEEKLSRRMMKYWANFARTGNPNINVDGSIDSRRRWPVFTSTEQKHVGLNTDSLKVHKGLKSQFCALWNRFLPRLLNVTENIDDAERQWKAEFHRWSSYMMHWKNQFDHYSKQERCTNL

Biological target: Acetylcholinesterase (Electrophorus electricus, UniProt O42275)

With CNC(=O)Oc1ccc2c(c1)[C@]1(C)CCN(C)[C@@H]1N2C [PHYSOSTIGMINE] the IC50 was 46 nM.
